Tests used:
[1] = target: the molecule itself; assay: AUC; sedimentation velocity, laser interferometry, 42,000 rpm, 20°C, protein at 0.1, 0.5 and 1 mg/ml, without AMP; distribution of monomers, dimers and tetramers
[2] = target: the molecule itself; assay: AUC; sedimentation velocity, laser interferometry, 42,000 rpm, 20°C, protein at 0.5 mg/ml, with 5 mM AMP

B1: wild-type human muscle fructose-1,6-bisphosphatase (FBP2) (enzyme, UniProt O00757 1-339, looked up)
chain: MTDRSPFETDMLTLTRYVMEKGRQAKGTGELTQLLNSMLTAIKAISSAVRKAGLAHLYGIAGSVNVTGDEVKKLDVLSNSLVINMVQSSYSTCVLVSEENKDAIITAKEKRGKYVVCFDPLDGSSNIDCLASIGTIFAIYRKTSEDEPSEKDALQCGRNIVAAGYALYGSATLVALSTGQGVDLFMLDPALGEFVLVEKDVKIKKKGKIYSLNEGYAKYFDAATTEYVQKKKFPEDGSAPYGARYVGSMVADVHRTLVYGGIFLYPANQKSPKGKLRLLYECNPVAYIIEQAGGLATTGTQPVLDVKPEAIHQRVPLILGSPEDVQEYLTCVQKNQAGS
notes: human muscle fructose-1,6-bisphosphatase FBP2, tag-free, on pETite plasmid; Tag-free construct; By ultracentrifugation it is a mixture of tetramers, dimers and monomers; also called WT FBP2; FBP2 WT; source: E. coli Hi-control BL21(DE3), purified (ammonium sulfate, cellulose phosphate)
stoichiometry N [1]: 4 | stoichiometry N [2]: 2

Reference: paper PMC5777782 (Oncotarget, 2017)
